Assay results from US20250179114A1.

Amino acid sequences for entries named in this document (tags omitted).
UniProt P04150, whole entry: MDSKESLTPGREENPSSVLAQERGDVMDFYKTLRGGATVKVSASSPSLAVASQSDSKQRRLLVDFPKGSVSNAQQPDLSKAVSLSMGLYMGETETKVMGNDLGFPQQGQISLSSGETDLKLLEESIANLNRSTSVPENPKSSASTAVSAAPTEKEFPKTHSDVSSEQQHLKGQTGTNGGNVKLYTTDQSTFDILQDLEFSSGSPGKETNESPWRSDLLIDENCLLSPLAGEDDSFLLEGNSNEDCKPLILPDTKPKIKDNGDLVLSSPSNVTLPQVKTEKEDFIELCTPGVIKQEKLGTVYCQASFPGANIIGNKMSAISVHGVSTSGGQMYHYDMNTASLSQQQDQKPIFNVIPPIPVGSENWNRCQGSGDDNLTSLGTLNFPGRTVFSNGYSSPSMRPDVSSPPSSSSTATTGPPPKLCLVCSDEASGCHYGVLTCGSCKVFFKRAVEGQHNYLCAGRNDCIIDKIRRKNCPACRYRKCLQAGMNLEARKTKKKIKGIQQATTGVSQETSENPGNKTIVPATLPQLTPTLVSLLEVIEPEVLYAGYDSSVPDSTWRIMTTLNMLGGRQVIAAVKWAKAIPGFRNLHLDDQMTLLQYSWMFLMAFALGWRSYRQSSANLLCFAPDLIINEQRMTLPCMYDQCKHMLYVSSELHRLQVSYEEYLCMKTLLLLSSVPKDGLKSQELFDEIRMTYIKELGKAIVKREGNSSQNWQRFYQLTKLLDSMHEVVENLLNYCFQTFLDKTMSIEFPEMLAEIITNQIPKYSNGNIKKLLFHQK

Target: glucocorticoid receptor (Homo sapiens, UniProt P04150)
Assay: Activity assay of glucocorticoid receptor reporter gene GRE
Type: cell-based
Details: read-out: EC50 (nM), glucocorticoid receptor reporter gene GRE activity; HEK293 cells transfected with pGL5 and pBIND-GR; 24 h; Dual-Glo luciferase

EC50: > 1000 nM
Structure (SMILES): C[C@]12C=CC(=O)C=C1CC[C@@H]1[C@@H]2[C@@H](O)C[C@@]2(C)[C@H]1C[C@H]1O[C@@H](c3ccc(Cc4cccc(N)c4)o3)O[C@]12C(=O)CO
